Laboratory results from patent US8293901B2, “MAPK/ERK kinase inhibitors” (Takeda Pharmaceutical Company Limited, priority 2006, dated 2012).

By UniProt entry, the sequences of proteins in these tests, tags left out. Chains listed by the source or under a name are the forms on record and can include a tag or linker.
UniProt Q02750, with tags, fused parts or gaps DEL33-52/S218E/S222D: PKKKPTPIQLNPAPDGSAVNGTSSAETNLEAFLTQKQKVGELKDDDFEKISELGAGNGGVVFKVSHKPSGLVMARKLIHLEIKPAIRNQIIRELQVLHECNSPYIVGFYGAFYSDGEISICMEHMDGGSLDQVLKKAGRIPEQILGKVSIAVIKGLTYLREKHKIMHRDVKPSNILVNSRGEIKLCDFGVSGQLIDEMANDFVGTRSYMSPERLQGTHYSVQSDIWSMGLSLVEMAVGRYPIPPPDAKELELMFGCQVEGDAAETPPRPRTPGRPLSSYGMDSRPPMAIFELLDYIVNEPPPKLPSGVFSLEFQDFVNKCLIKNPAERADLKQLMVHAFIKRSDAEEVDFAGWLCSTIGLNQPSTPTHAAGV

Biological target: MEK1 (Homo sapiens, UniProt Q02750, DEL33-52/S218E/S222D)
Test: MEK1 inhibition, ERK1/FI-Erktide fluorescence polarization assay with IMAP beads

`Cn1c(=O)c(F)c(Nc2ccc(Br)cc2F)c2c(=O)n(C[C@@H](O)CO)cnc21` [Example 20, (R)-5-(4-Bromo-2-fluorophenylamino)-3-(2,3-dihydroxypropyl)-6-fluoro-8-methylpyrido[2,3-d]pyrimidine-4,7(3H,8H)-dione] was tested, and the IC50 was ≥ 0.016 µM.
In the case of `Cn1cnc2c(c(Nc3ccc(I)cc3F)cc(=O)n2C)c1=O` [Example 1, 5-(2-fluoro-4-iodophenylamino)-3,8-dimethylpyrido[2,3-d]pyrimidine-4,7(3H,8H)-dione], the IC50 is reported as ≥ 0.016 µM.
